As usually defined, the Kd is the free concentration of one partner at which half of the binding sites on the other are occupied at equilibrium, for simple one-to-one binding.

This assay has as its target pertactin ectodomain (Prn-E) (Bordetella (species not stated)). Put plainly: isothermal titration calorimetry (ITC); too weak to measure reliably, so the value is an estimate.

In the case of Mtd-M1, the Kd was more than 200 µM.
